{"source": "patent US20240181135A1", "about": "“BIOCHEMICAL ACTIVATION OF DYSFUNCTIONAL SKELETAL STEM CELLS FOR SKELETAL REGENERATION” (The Board of Trustees of the Leland Stanford Junior …, priority 2021, published 2024)", "molecules": {"B1": {"name": "Bmp2: Recombinant mouse growth factor BMP2 (FisherScientific, Cat #: 355-BM), potent osteo-inductive agent, loaded in PEG hydrogel (protein, UniProt P21274 281-394, looked up)", "Bone morphogenetic protein 2": "QAKHKQRKRLKSSCKRHPLYVDFSDVGWNDWIVAPPGYHAFYCHGECPFPLADHLNSTNHAIVQTLVNSVNSKIPKACCVPTELSAISMLYLDENEKVVLKNYQDMVVEGCGCR", "modifications": "loaded in PEG hydrogel"}}, "key": {"SSCs and BCSPs": {"tested_on": "SSCs and BCSPs", "experiment": "Flow cytometry of SSC and BCSP frequency in treated day-10 fracture calluses", "format": "in vivo, mouse", "settings": "‘24-mo’ mice; callus flow cytometry; Bmp2 5 μg; aCsf1 low 2 μg; compared to ‘2-mo’ PBS controls", "excerpt": "(§1) Combinatorial targeting of the aged SSC differentiation defect and pro-resorptive signaling restores youthful bone regeneration. Our findings indicate that aged SSCs lose osteochondrogenic activity but also enhance bone resorption through the generation of an inflammatory, pro-osteoclastic niche. We hypothesized that bone regeneration could be restored in aged mice by targeting each of these pathways locally. To test this hypothesis, we created hydrogels containing the potent osteo-inductive agent Bmp2 (5 μg), a Csf1 antagonist (“aCsf1”; 2 “low” or 5 “high” μg), a combination of both factors, or PBS. We applied these hydrogels to transverse femoral fractures of ‘24-mo’ mice and assessed healing at post-fracture day-10 and -21 (FIG. 4a). ‘2-mo’ mice receiving PBS-containing hydrogels served as control. […] Within hematopoietic cell-enriched clusters (6 & 9) osteoclasts, macrophages, and neutrophils were dominant as expected for healing skeletal tissue (FIG. 4i-j & FIG. 13g). […]\nFlow cytometry of skeletal progenitors: Skeletal stem cell lineage populations were isolated as previously described. […] The skeletal stem cell lineage gating strategy was determined using fluorescence-minus-one controls. […]"}, "[1]": {"tested_on": "transverse femoral fractures of ‘24-mo’ mice", "experiment": "Hydrogels with recombinant factors placed on transverse femoral fractures of aged mice; healing assessed at day-10 and day-21 (callus index, μCT, mechanical strength test)", "format": "in vivo, mouse", "settings": "hydrogel at fracture, Bmp2 5 μg, aCsf1 2 (low) or 5 (high) μg, compared to ‘2-mo’ PBS controls", "excerpt": "as §1\nX-ray radiography: Femora were harvested and cleaned of soft tissue. […] Radiograph images were analyzed using ImageJ 1.48v to determine the callus index. […]\nMechanical strength testing: Mechanical strength testing was conducted using a delaminator maintained by the R.H. Dauskardt laboratory (Stanford, CA). […] The maximum load (N) sustained prior to fracture was recorded. […]"}}}
{"molecule": "B1", "values": [{"measurement": "SSC and BCSP frequency at day-10", "setting": "SSCs and BCSPs", "value": "increased SSC and BCSP frequencies to youthful levels"}, {"measurement": "Callus index at post-fracture day-10", "setting": "[1]", "value": "significantly smaller calluses"}]}
